The chains behind the UniProt entries cited, without tags or fusion partners.
UniProt P61169, whole entry: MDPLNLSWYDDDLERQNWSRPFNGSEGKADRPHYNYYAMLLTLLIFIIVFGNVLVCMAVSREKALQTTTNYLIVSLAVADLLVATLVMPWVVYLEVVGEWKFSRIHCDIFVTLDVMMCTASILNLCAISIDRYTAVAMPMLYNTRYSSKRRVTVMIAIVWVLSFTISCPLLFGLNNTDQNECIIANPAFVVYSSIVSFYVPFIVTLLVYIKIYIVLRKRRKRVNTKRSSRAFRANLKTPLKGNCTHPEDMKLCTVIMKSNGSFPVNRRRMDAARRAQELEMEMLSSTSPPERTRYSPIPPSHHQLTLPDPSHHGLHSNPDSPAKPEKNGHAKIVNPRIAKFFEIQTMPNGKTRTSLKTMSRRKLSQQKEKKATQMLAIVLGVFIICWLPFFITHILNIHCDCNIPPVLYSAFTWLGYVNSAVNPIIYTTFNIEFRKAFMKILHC

In ChEMBL document CHEMBL1125692 (J Med Chem, 1991):

Target: D(2) dopamine receptor (Rattus norvegicus, UniProt P61169)
Assay: Displacement of [3H]- spiperone from dopamine receptor D2 of striatal membranes without sodium chloride

CCN1CCC[C@H]1CNC(=O)c1cc(I)cc(OC)c1OC [EPIDEPRIDE]
Ki: 0.66 nM
